Test results published in US12428446B2, “Peptide compound or pharmaceutically acceptable salt thereof” (Eyebio Korea, priority 2019, dated 2025).

Assay: Evaluation of dissolution stability (content change on storage in dissolved state)
Assay type: physicochemical
Conditions: 1 mg/1 ml dissolved state, 40° C. and RH 75%

For “4-methylene-Pro-Gly-Gln-Asp-Gly [Example 44]”, the “Day 1 content (%)” value (day 1) was 89.07%, the “Day 3 content (%)” value (day 3) was 78.54% and the “Day 7 content (%)” value (day 7) was 56.03%. The “Initial content (%)” value (initial) was 99.11%.
